Sampled rows, rich in hits. Any-hit rate of the full collection: about 2.5%.
miR-21 reporter – miR-21 reporter, rising signal | AID 2288 | HeLa miR-21 FLuc reporter, luciferase, 48 h | 340,000 tested, under 10 active | Potency, µM (titrated, usually from 38.3 µM); active = well fitted rising curve with a large enough effect; inconclusive = small, poorly fitted or top-dose-only effect; inactive = no such curve, though single readings can be large or run the other way;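 also: miR-21 action dims this reporter so a rising signal means less miR-21 action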
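HeLa cells endogenously expressing miR-21, stably carrying CMV-driven firefly luciferase with a downstream miR-21 binding site, 2000 cells/well. Titrations up to approximately 40 uM, 48 hours; luciferase luminescence read.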
rTrxR1 inhibitor – rat TrxR1 inhibition; AID 588453; Potency, µM (series often up to 114 µM), actives largely listed as inhibitors; 390,000 compounds, 1% hits; recombinant rTrxR1, NADPH fluorescence consumption, selenite substrate; O89049; further: nearly all actives have a fitted effect of over 65% in size
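Rat TrxR1 (90 nM in the dispensed reagent) was pre-reduced with 400 uM NADPH for 5 min at room temperature, then incubated with compound for 15 min. After 400 uM selenite was added, NADPH fluorescence (Ex 340/Em 450 nm) was followed for 8 min.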
Anesthetic bind – binds horse apoferritin like a general anesthetic | 350,000 compounds, 0.074% hits | AID 485281 | Potency, µM (series often up to 77.5 µM), actives largely listed as inhibitors | P02791 | apoferritin/1-aminoanthracene competitive binding, fluorescence; further: nearly all actives have a fitted effect of over 20% in size
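Probe: 1-aminoanthracene (50% saturated, PBS). Protein: horse-spleen apoferritin, 10 uM. Incubation: 10 min, room temperature. Detection: 380 nm excitation, 535 nm emission. Analysis: normalized response, four-parameter Hill.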
TrxR1 substrate – is turned over as a substrate by rat TrxR1; AID 588456; Potency, µM (highest dose often 114 µM); O89049; purified TrxR1 substrate turnover, NADPH consumption readout; 390,000 compounds, 0.01% hits; further: nearly all actives have a fitted effect of over 50% in size
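Rat TrxR1, dispensed at 90 nM, was prereduced with 400 uM NADPH (final) for 5 min at ~22 deg C, then incubated with compound 15 min before 400 uM selenite. A first-read NADPH fluorescence drop versus no-compound background flagged substrates.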
ClpP mod – qHTS Assay for Activators of ClpP | purified B. subtilis ClpP, FRET peptide cleavage, 20 min | Potency, µM (titrated, usually from 57.5 µM) | 340,000 compounds, 1.9% hits | ATP-dependent Clp protease proteolytic subunit (Bacillus subtilis (strain 168)), P80244; active means well fitted falling curve with a large enough effect; inconclusive means small, poorly fitted or top-dose-only effect; inactive means no such curve, though single readings can be large or run the other way; further: the source files actives as falling curves though it sought activators and does not explain the sign; nearly all actives have a fitted effect of over 65% in size
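ClpP 10 microg/mL final, pH 8 Tris/KCl buffer with BSA, glycerol, Tween-20; compound pinned in; FRET-FV substrate; RT 20 min; Ex320/Em430; ΔFRET vs ADEP 5.8 microM, DMSO, no enzyme.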
Numbers stand for hits; n = inactive; u = inconclusive; x = no result given; [ ] = remark or other dose. Unless noted, the call rests on the fitted dose curve; in most records, active means well fitted curve in the direction sought with a large enough effect; inconclusive means small, poorly fitted or top-dose-only effect, or another doubt; inactive means no such curve, though single readings can be large; an effect the other way counts as inactive or inconclusive.

The chains behind the UniProt entries cited, without tags or fusion partners.
ATP-dependent Clp protease proteolytic subunit (Bacillus subtilis (strain 168)), P80244, UniProt P80244, whole entry, looked up: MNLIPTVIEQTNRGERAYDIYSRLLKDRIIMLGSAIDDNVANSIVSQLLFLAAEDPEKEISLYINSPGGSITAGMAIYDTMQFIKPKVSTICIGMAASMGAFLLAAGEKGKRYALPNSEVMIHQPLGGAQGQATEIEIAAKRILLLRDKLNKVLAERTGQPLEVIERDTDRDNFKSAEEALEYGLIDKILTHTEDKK

SMILES | miR-21 reporter | rTrxR1 inhibitor | Anesthetic bind | TrxR1 substrate | ClpP mod
CCOc1ccc(N(CC)S(=O)(=O)N2CCCC(C(=O)Nc3ccc(NC(C)=O)cc3)C2)cc1 (configuration not stated) | n | n | n | n | n
CS(=O)(=O)c1ccc(Cl)c(NC(=O)CCl)c1 | u | 12.6µM | n | n | n
CS(=O)(=O)c1ccc(C(=O)Nc2cc(S(C)(=O)=O)ccc2Cl)cc1 | n | u | n | n | n
CCCOc1ccccc1C(=O)Nc1ccc(-c2nc3ccc(C)cc3s2)cc1 | n | n | n | n | n
COc1cccc(CNC(=O)c2ccc(NC(=O)N3CCCCc4ccccc43)cc2)c1OC | n | n | u | n | n
CCOCCc1nn2c(=O)cc(COC(=O)c3ccc4c(c3)OCO4)nc2s1 | n | n | n | n | n
CCc1nc2ccc(C(=O)NCCc3ccc(OC)cc3OC)cc2nc1CC | n | n | n | n | 31.6µM
Cc1ccc2nc3c(cc(C#N)c(=O)n3-c3nccs3)c(=O)n2c1 | n | u | n | n | 2.51µM
O=C(c1ccc(-n2cncn2)c([N+](=O)[O-])c1)N1CCN(S(=O)(=O)c2ccccc2F)CC1 | x | n | x | n | 14.1µM
CC(C)CCOCC(=O)Oc1ccccc1C(=O)O | n | n | n | n | 28.2µM
CC1(C)CC(=O)C([N+](=O)[O-])=C(NCCCC(=O)O)C1 | n | n | n | n | 14.1µM
CCOCCCn1c(SCC(=O)Nc2ccccc2CC)nc2ccccc2c1=O | n | n | n | n | n
CCC(Oc1ccccc1)C(=O)Nc1ncc([N+](=O)[O-])s1 (configuration not stated) | n | n | n | n | n
CC(CC(=O)Nc1ncc([N+](=O)[O-])s1)c1ccccc1 (configuration not stated) | n | n | 35.5µM | n | x
CC1CCc2c(sc3nnn(CC(=O)Nc4cccc(C(F)(F)F)c4)c(=O)c23)C1 (configuration not stated) | n | n | n | n | n
COc1ccc(OC)c(-n2c(C)ccc2-c2ccc(S(C)(=O)=O)cc2)c1 | n | n | n | n | 28.2µM
CCCSc1nc(N2CCOCC2)c2c(c1C#N)CCCC2 | n | n | n | n | n
CC(C)c1nc(N2CCOCC2)c(C#N)c2c1CCC2 | n | n | n | n | 25.1µM
CCCCc1nc(N2CCOCC2)c(C#N)c2c1CCCC2 | n | n | n | n | 25.1µM
CCCc1nc(N2CCOCC2)c(C#N)c2c1CCCC2 | n | n | n | n | 31.6µM
CCOc1cc2c(C#N)c(N3CCOCC3)nc(N)c2c(N)n1 | n | n | n | n | 31.6µM
CCCOc1ccc(-c2nn(-c3ccccc3)cc2C2NC(=O)NC(C)=C2C(=O)OC)cc1C (configuration not stated) | n | n | n | n | n
Cc1cc(C)c(C#N)c(N2CCOCC2)n1 | n | n | n | n | 25.1µM
Cc1cc(N2CCOCC2)nc(N2CCOCC2)c1C#N | x | x | x | x | n
COC(=O)C1=CNC=C(C(=O)OC)C1c1ccc(C(=O)OC)cc1 | n | n | n | n | 28.2µM
SMILES | miR-21 reporter | rTrxR1 inhibitor | Anesthetic bind | TrxR1 substrate | ClpP mod
Cc1ccc(CNC(=O)C2CCCN(c3nc4ccccc4n4cccc34)C2)cc1 (configuration not stated) | n | n | n | n | 22.4µM
COc1ccccc1CNC(=O)C1CCCN(c2nc3ccccc3n3cccc23)C1 (configuration not stated) | n | n | n | n | 12.6µM
COc1ccc(-n2nc3c(N4CCCC(C(=O)NCc5ccccc5C)C4)nnc(C)c3c2C)cc1 (configuration not stated) | n | n | n | n | 28.2µM
O=C(Nc1ccc(Cl)cc1)C1CCN(c2nc3ccccc3n3cccc23)CC1 | n | n | n | n | 28.2µM
O=C(NCc1ccccc1Cl)C1CCCN(c2nc3ccccc3n3cccc23)C1 (configuration not stated) | u | n | n | n[11.4 µM] | n
COc1ccc(-n2nc3c(N4CCCC(C(=O)NCCc5ccccc5C)C4)nnc(C)c3c2C)cc1 (configuration not stated) | u | n | u | n | n
CCOC(=O)c1c(Oc2ccc(C(C)=O)cc2)nnc(-c2ccccc2)c1-c1ccccc1 | n | n | u | n | n
CC(=O)O[C@@H]1[C@@]2(C)O[C@H]2CC[C@]23O[C@H]2[C@H](OC3=O)C2=C(C)C(=O)O[C@@]21O | n | 50.1µM | n | n | n
COc1ccc(S(=O)(=O)Nc2ccccc2C(=O)NCc2ccco2)cc1 | n | n | n | n | u
COc1ccc(S(=O)(=O)N(Cc2ccccc2)c2ccccc2C(=O)Nc2ccccc2C(=O)NCc2ccco2)cc1 | n | n | n | n | 22.4µM
Cc1cc(CNC(=O)c2cc(-c3ccccc3)nc3ccccc23)nn1C | n | n | n | n | n
Cc1cc(C(=O)NCc2cc(C)n(C)n2)sc1-c1ccccc1 | n | n | n | n | 25.1µM
CCCCCCCCCCCCCCCCCCN(CCCCCCCCCCCCCCCCCC)c1ccc(/C=C/c2ccc(C=O)cc2)cc1 | x | n | x | n | n
O=c1[nH]cnc2sc(-c3ccccc3)cc12 | n | n | u | n | 31.6µM
CCC[n+]1c(/C=C/c2c(OC)cc(OC)cc2OC)ccc2ccccc21 | x | n | x | n | n
COc1ccccc1CNC(=O)c1cc(Sc2cccc(Cl)c2)nc2ccccc12 | n | n | u | n | u
COc1ccc(N2C(=O)CC(Sc3n[nH]c(-c4ccccc4)n3)C2=O)cc1 (configuration not stated) | n | 2µM | n | n | n
CCOc1ccc(N2C(=O)CC(Sc3n[nH]c(-c4ccccc4)n3)C2=O)cc1 (configuration not stated) | n | 6.31µM | n | n | n
COc1ccc(N2C(=O)CC(Sc3nc(C)c4c(n3)CCCC4)C2=O)cc1 (configuration not stated) | n | n | n | n | n
Oc1ccc2ccccc2c1SSc1c(O)ccc2ccccc12 | x | u | x | n | x
CCc1ccc(CNC(=O)CCn2c(=O)c3cccn3c3ccc(F)cc32)cc1 | n | n | n | n[11.4 µM] | n
C=CCN1CCN(C(c2ccccc2)c2nnnn2CCC(C)C)CC1 (configuration not stated) | n | 28.2µM | n | n | n
CC(C)CC(=O)OCc1cc(=O)n2nc(C3CCCCC3)sc2n1 | n | n | n | n | n
O=C(Oc1csc(=S)n1C(=O)c1ccccc1)c1ccccc1 | n | u | n | n | 8.91µM
Cc1cccc(C(=O)Oc2csc(=S)n2C(=O)c2cccc(C)c2)c1 | n | u | n | n | n
CCOc1ccc(C2C(=O)N(C3CCCCCC3)CC(=O)N2CCc2ccc(Cl)cc2)cc1OC (configuration not stated) | n | n | n | n | n
O=C(O)/C=C\C(=O)Nc1ccccc1C(=O)N1CCN(c2ccc(Cl)cc2)CC1 | n | n | n | n | 20µM

Screening data as filed in PubChem BioAssay.
